Molecular target: soluble rhTNFa (human) (UniProt P01375)
Test: SPR, Biacore 3000; antibody captured on immobilized goat anti-human IgG, soluble rhTNFa 1-100 nM as analyte; 1:1 Langmuir global fit

Kd | koff | kon | Substance
0.0389 nM | 6.72e-05 s⁻¹ | 1.73e+06 M⁻¹ s⁻¹ | D2E7 antibody produced from the manufacturing process (antibody; other documents disagree on this pair)
0.0354 nM | 5.69e-05 s⁻¹ | 1.61e+06 M⁻¹ s⁻¹ | D2E7 antibody produced using the pTT3-HcintLC-p. hori sORF construct (antibody; other documents disagree on this pair)
